System: 1-methyl-4-phenyl-1,2,3,6-tetrahydropyridine (MPTP) monkeys
Assay: LIDs in MPTP parkinsonian monkeys
Settings: for persistence of LID reduction, tolerance: parkinsonian monkeys

SMILES: O=C(c1ccc(Cl)o1)N1CC2CNCC2C1 (centres unmarked) [AZD1446]
- decline (maximal decrease) in LIDs in parkinsonian monkeys: 30%
- effect on LIDs in parkinsonian monkeys (monkey, in vivo): appear less efficacious

SMILES: Clc1cc(N2C[C@@H]3CN[C@@H]3C2)cnc1Cl [ABT-894]
- decline (maximal decrease) in LIDs in parkinsonian monkeys: up to 60%
- side effects (emesis, nausea) in parkinsonian monkeys: no detectable side effects and no emesis
- effect on LIDs in parkinsonian monkeys (monkey, in vivo): greatest reduction in LIDs
- persistence of LID reduction, tolerance: persisted for months

SMILES: c1cnc2cc3c(cc2n1)[C@@H]1CNC[C@H]3C1 [Varenicline]
- decline (maximal decrease) in LIDs in parkinsonian monkeys: ~50%
- Side effects in monkeys (monkey, in vivo): Some
- effect on LIDs in parkinsonian monkeys (monkey, in vivo): appear less efficacious
- persistence of LID reduction, tolerance: no tolerance

SMILES: Cc1ncccc1OC[C@@H]1CCCN1 [ABT-089]
- decline (maximal decrease) in LIDs in parkinsonian monkeys: 40%
- side effects (emesis, nausea) in parkinsonian monkeys: no detectable side effects and no emesis
- effect on LIDs in parkinsonian monkeys (monkey, in vivo): appear less efficacious
- persistence of LID reduction, tolerance: persisted for months

— US20190307740A1, “COMPOSITIONS AND METHODS FOR TREATMENT RELATED TO FALL AND FALL FREQUENCY IN NEURODEGENERATIVE DISEASES” (Neurocea, LLC, priority 2016, published 2019)
